What was measured:
[1] = biological target: human PI3Kα protein (Homo sapiens, UniProt P42336); experiment: PI3Kα enzyme assay (ADP-Glo); details: read-out: PI3Kα enzyme inhibitory activity
Description: In a PI3Kα enzyme assay, a product (manufactured by Carna Biosciences, Inc.) obtained by biotinylating a human PI3Kα protein produced by using a baculovirus expression system was used. In addition, in the detection of enzyme activity, ADP-GLO KINASE ASSAY (trade name, manufactured by PROMEGA Corporation) was used.
10 μL of a reaction liquid (4.5 nmol/L PI3Kα, 40 mmol/L Tris-HCl, 20 mmol/L MgCl2, 0.1% BSA, pH 7.5) including the human PI3Kα protein and a test compound having a predetermined concentration was allowed to stand at room temperature for 15 minutes. Then, 5 μL of a mixture liquid of L-α-phosphatidylinositol 4,5-diphosphate (PIP2) (manufactured by Sigma-Aldrich Co. LLC.) and ATP (manufactured by Sigma-Aldrich Co. LLC.), which are substrates, was added thereto such that final concentrations thereof became 50 μmol/L and 100 μmol/L, respectively, and an enzyme reaction was performed by allowing to stand at 25° C. for 60 minutes.
After the reaction, the enzyme reaction was stopped by adding 15 μL of an ADP-GLO REAGENT (trade name, manufactured by PROMEGA Corporation) thereto and allowing to stand at room temperature for 60 minutes. Then, 30 μL of a KINASE DETECTION REAGENT (trade name, manufactured by PROMEGA Corporation) was added thereto, followed by allowing to stand at room temperature for 40 minutes, and ADP produced by the enzyme reaction was quantified by emission intensity.
ENVISION (trade name, manufactured by Perkin Elmer Inc.) was used for the measurement of the emission intensity.
(§1) The inhibitory activities of the compounds were evaluated using IC50 (50% inhibitory concentration). The IC50 was calculated using XLFIT (trade name, manufactured by ID Business Solutions).

Chains of the proteins cited; added tags and fusions are not shown.
UniProt P42336, whole entry: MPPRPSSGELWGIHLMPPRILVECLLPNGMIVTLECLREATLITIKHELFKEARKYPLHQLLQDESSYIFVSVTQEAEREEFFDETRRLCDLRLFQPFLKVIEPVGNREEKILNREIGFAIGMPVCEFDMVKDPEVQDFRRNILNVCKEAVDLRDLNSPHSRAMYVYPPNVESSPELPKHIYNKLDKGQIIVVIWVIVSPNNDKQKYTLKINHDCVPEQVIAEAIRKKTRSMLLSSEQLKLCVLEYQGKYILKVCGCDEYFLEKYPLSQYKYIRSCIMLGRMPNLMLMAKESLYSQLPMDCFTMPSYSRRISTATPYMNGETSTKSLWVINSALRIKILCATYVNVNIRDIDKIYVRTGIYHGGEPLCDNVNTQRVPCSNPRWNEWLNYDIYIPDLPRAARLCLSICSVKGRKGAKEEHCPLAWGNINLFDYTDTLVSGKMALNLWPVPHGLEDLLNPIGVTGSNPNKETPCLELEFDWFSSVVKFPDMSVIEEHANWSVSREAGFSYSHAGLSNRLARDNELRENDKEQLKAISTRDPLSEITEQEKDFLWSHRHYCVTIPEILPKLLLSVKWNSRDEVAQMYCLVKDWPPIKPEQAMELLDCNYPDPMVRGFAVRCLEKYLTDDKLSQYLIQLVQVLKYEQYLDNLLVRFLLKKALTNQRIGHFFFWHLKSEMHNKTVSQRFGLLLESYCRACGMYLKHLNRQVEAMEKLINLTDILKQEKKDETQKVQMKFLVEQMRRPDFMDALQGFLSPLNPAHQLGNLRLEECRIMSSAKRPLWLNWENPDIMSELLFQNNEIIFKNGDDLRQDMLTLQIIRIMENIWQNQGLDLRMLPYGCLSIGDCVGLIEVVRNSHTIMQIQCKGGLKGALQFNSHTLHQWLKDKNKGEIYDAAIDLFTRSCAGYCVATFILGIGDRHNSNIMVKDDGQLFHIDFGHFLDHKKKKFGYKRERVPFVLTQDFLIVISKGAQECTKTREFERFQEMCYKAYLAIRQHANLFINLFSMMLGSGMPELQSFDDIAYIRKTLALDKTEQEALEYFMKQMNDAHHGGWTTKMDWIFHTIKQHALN
UniProt P28482, whole entry: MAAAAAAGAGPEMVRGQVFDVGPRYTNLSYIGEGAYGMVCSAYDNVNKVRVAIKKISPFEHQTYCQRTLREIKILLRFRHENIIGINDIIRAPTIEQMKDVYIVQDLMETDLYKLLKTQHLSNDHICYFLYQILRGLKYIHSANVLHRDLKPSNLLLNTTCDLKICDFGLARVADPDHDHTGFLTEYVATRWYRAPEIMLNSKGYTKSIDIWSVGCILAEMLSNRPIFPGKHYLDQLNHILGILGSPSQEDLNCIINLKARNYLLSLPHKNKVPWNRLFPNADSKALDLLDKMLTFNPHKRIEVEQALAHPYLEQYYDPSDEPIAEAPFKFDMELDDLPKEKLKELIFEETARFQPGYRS
UniProt P27986, whole entry partner: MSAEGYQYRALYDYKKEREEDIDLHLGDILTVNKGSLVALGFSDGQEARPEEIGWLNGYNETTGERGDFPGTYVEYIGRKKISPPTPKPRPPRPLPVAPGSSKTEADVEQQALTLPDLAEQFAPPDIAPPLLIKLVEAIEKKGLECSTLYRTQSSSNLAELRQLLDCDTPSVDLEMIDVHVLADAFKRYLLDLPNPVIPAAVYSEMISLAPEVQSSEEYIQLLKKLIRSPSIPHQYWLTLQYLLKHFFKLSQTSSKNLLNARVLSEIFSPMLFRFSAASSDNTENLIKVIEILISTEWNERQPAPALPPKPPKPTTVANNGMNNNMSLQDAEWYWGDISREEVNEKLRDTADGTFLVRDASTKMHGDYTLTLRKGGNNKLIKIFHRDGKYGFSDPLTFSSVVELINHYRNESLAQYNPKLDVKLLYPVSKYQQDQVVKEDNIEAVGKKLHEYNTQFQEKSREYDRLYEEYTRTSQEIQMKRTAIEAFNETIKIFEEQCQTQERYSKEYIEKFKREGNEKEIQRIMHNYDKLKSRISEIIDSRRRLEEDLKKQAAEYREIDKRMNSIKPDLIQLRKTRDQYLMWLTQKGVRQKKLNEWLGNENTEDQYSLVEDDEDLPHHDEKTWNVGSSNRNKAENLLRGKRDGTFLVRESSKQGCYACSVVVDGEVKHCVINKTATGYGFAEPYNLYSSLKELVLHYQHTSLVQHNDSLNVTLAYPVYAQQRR

[2] = biological target: GST fusion human ERK2 protein (Homo sapiens, UniProt P28482); experiment: ERK2 enzyme assay (2); details: read-out: ERK2 enzyme inhibitory activity (2)
Description: In an ERK2 enzyme assay, GLUTATHIONE S-TRANSFERASE (GST) FUSION HUMAN ERK2 PROTEIN (manufactured by Carna Biosciences, Inc.), which was produced by using an E. coli expression system, was used.
12 μL of a reaction liquid (1.25 nmol/L ERK2, 100 mmol/L Hepes, 10 mmol/L MgCl2, 1.5 mmol/L DTT, 0.003% Brij35, pH 7.5) including ERK2 protein and a test compound having a predetermined concentration was allowed to stand at room temperature for 15 minutes. Then, 3 μL of a mixture liquid of FL-PEPTIDE8 (5-FAM-IPTSPITTTYFFFKKK-COOH) (manufactured by Caliper Life Sciences), which is substrate peptide, and ATP (manufactured by Sigma-Aldrich Co. LLC.) was added thereto such that the final concentrations thereof became 4.25 μmol/L and 1 mmol/L, respectively, and an enzyme reaction was performed by allowing to stand at 25° C. for 120 minutes.
After the reaction, the enzyme reaction was stopped by adding 30 μL of a reaction stopper liquid (100 mmol/L HEPES, 11.2 mmol/L EDTA, 5.6% Brij35, pH 7.5) including a 0.5% COATING REAGENT 8 (trade name, manufactured by Perkin Elmer Inc.) thereto. Then, phosphorylated peptide and non-phosphorylated peptide were separated using LABCHIP EZ READER (trade name, manufactured by Caliper Life Sciences), and the porportion of the phosphorylated peptide was quantified.
as §1

IC50 [1] | IC50 [2] | SMILES
1000 to 10000 nM | < 1000 nM | CC(C)c1cnnc(Nc2ccc3ncc(-c4cn(C)nc4COc4ccncc4)cc3n2)c1
< 1000 nM | < 1000 nM | CC(C)c1cnnc(Nc2ccc3ncc(-c4cn(C)nc4COc4ccccn4)cc3n2)c1
< 1000 nM | < 1000 nM | CC(C)c1cnnc(Nc2ccc3ncc(-c4cn(C)nc4NC4CN(C(=O)OC(C)(C)C)C4)cc3n2)c1
